# Rows were chosen to be rich in hits. Some 2.3% of all compounds tested hit in one or more screens of this group.
# miR-21 FLuc – miR-21 reporter, rising signal | HeLa miR-21 FLuc reporter, luciferase, 48 h | Potency, µM (highest dose often 38.3 µM), for inactives: at the top dose reporter change, positive = more light | 340,000 tested, under 10 active | AID 2288; active = well fitted rising curve with a large enough effect; inconclusive = small, poorly fitted or top-dose-only effect; inactive = no such curve, though single readings can be large or run the other way;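 further: % of control where 0% means no effect; miR-21 action dims this reporter so a rising signal means less miR-21 action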
#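 Compounds were titrated across several concentrations (up to approximately 40 uM) and incubated 48 hours with HeLa miR-21-FLuc reporter cells (miR-21 target sequence downstream of FLuc, endogenous miR-21). Readout was firefly luciferase luminescence after lytic detection reagent.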
# Mito fusion yeast – inhibitors of mitochondrial division or activators of mitochondrial fusion | S. cerevisiae fusion-defective mutant growth rescue, CellTiterGlo 48 h | Potency, µM (doses to about 46.1 µM), inactives show at the highest dose growth rescue (activation), actives largely listed as activators | 0.23% of 320,000 active | AID 485298; further: potency means the concentration at half of the fitted maximal effect; % of control where 0% means no effect; nearly all actives have a fitted effect of over 45% in size
#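 Compounds are tested for their ability to restore growth of mitochondrial fusion-defective yeast strains at non-permissive 37C in YPEG medium over 48 hours. Viability is quantified by luciferase luminescence.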
# GRP78 ERSR act – ER stress response induction in glioma; 0.02% of 420,000 active; U87-MG GRP78 promoter luciferase reporter, 16 h; AID 602332; Potency, µM, inactives show top-dose activation, usual class: activators; further: potency means the concentration at half of the fitted maximal effect; series mostly up to about 76 µM; % of control where 0% means no effect; nearly all actives have a fitted effect of over 35% in size
#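 ERSR induction read as luciferase luminescence (Bright-Glo, 10 min at room temperature) in stably transfected human U87-MG glioma cells exposed to compounds for 16 h, using GRP78 as sensor.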
# Nrf2 ARE act – activates Nrf2 signaling. AREc32 ARE-luciferase reporter (MCF7-derived line), luminescence, 24 h. AID 624171. 0.31% of 410,000 active. Potency, µM (titrated, usually from 46.1 µM), without a hit: at the highest dose activation, actives largely listed as activators; further: potency means the concentration at half of the fitted maximal effect; % of control where 0% means no effect; nearly all actives have a fitted effect of over 65% in size
#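 Reporter line AREc32 (ARE-Fluc), seeded overnight in OPTI-MEM with 5% FBS; compound pin-transferred, 24 hr at 37 deg C, 5% CO2; luminescent read-out.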
# Nrf2 inh – Nrf2 pathway inhibition | A549 ARE-Fluc reporter, luciferase luminescence, 18-24 h | Potency, µM (top dose mostly 46 µM), for the others: at the top dose activity change, negative = inhibition, hits mostly inhibitors | 2.1% of 360,000 active; further: potency means the concentration at half of the fitted maximal effect; on the % scale 0 is the no-effect control and ±100 the full control effect; nearly all actives have a fitted effect of over 60% in size
#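 Nrf2 function is reported as luminescence of an ARE-controlled luciferase in A549 cells. Compounds were tested at several concentrations, and a CellTiter-Fluor read on the same wells flagged cytotoxicity.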
# A549 viability – kills or reduces viability of A549 cells in Nrf2 counter-screen | A549 ARE-Fluc cells, CellTiter-Fluor viability, 18-24 h | Potency, µM (top dose mostly 46 µM), for inactives: at the highest dose activity change, negative = cytotoxicity, usual class: inhibitors | 0.16% of 390,000 active | AID 504648; further: potency means the concentration at half of the fitted maximal effect; on the % scale 0 is the no-effect control and ±100 the full control effect
#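 A549 ARE_Fluc cells in 5% FBS OPTI-MEM were exposed to compounds in concentration-response for 18-24 h at 37 deg C. Viability was read by CellTiter-Fluor fluorescence (Ex 405/Em 525) after 30 min, before the luciferase read.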
# Active calls of the source: *; ? = inconclusive; · = no result. Unless noted, the call rests on the fitted dose curve; in most records, active means well fitted curve in the direction sought with a large enough effect; inconclusive means small, poorly fitted or top-dose-only effect, or another doubt; inactive means no such curve, though single readings can be large; an effect the other way counts as inactive or inconclusive.
No.	Compound	miR-21 FLuc	Mito fusion yeast	GRP78 ERSR act
1	COc1ccc(NC(=O)c2oc3ccccc3c2NC(=O)c2ccco2)cc1	0%	0%	0%
2	O=C1C2C3C=CC(C3)C2C(=O)N1c1ccc(Cc2ccncc2)cc1 (configuration not stated)	3%	-1%	-3%
3	CC1CCC2C(=O)N(c3ccc(Cc4ccncc4)cc3)C(=O)C2C1 (configuration not stated)	16%	0%	-4%
4	N/C(=N\NC(=O)c1sccc1OCc1ccc(Cl)cc1Cl)c1ccccn1	30%	-6%	-2%
5	Cn1ccc2c(-c3ccc(C(F)(F)F)cc3)cc3c(c21)C1CCC3O1 (configuration not stated)	·	·	-2%
6	COc1ccc(/C=C2\C(=N)N3N=C(CC(=O)N4CCCCC4)SC3=NC2=O)cc1	-2%	-5%	-2%
7	Cc1ccc(NC(CC(=O)c2ccccc2)C(=O)O)cc1Cl (configuration not stated)	-57%	-2%	-1%
8	CC(C)OC(=O)NC(C)(C)COC(=O)Nc1cccc(Cl)c1	-10%	12%	4%

No.	Nrf2 ARE act	Nrf2 inh	A549 viability
1	0%	1.6µM*	-7%
2	2%	?	-19%
3	-1%	10µM*	-14%
4	-1%	?	-21%
5	5%	·	·
6	0%	13%	-1%
7	18µM*	?	0%
8	2%	10µM*	-26%

# A stretch from the list above:
No.	Compound	miR-21 FLuc	Mito fusion yeast	GRP78 ERSR act
5	Cn1ccc2c(-c3ccc(C(F)(F)F)cc3)cc3c(c21)C1CCC3O1 (configuration not stated)	·	·	-2%
6	COc1ccc(/C=C2\C(=N)N3N=C(CC(=O)N4CCCCC4)SC3=NC2=O)cc1	-2%	-5%	-2%
7	Cc1ccc(NC(CC(=O)c2ccccc2)C(=O)O)cc1Cl (configuration not stated)	-57%	-2%	-1%
8	CC(C)OC(=O)NC(C)(C)COC(=O)Nc1cccc(Cl)c1	-10%	12%	4%

No.	Nrf2 ARE act	Nrf2 inh	A549 viability
5	5%	·	·
6	0%	13%	-1%
7	18µM*	?	0%
8	2%	10µM*	-26%

# Additional results.
No.	Compound	miR-21 FLuc	Mito fusion yeast	GRP78 ERSR act
9	CC(C)n1nnnc1C1c2ccccc2C(=O)N1Cc1cccs1 (configuration not stated)	·	·	·
10	C=C(C)c1cccc(C(C)(C)NC(=O)Nc2ccc(C)cn2)c1	-19%	?	-3%
11	C=C(C)c1cccc(C(C)(C)NC(=O)Nc2cc(C)ccn2)c1	7%	-3%	-1%
12	C=C(C)c1cccc(C(C)(C)NC(=O)Nc2ccc(OC)nc2)c1	0%	2%	1%
13	COCC(=O)NC1CC2CCC(C1)N2C(=S)Nc1ccccc1C(=O)OC (configuration not stated)	-1%	8%	-1%
14	Fc1cccc(C2NN=C(c3ccccc3)S2)c1 (configuration not stated)	-75%	1%	1%
15	Cc1ccc(C2=NNC(c3cccc(F)c3)S2)cc1 (configuration not stated)	-40%	3%	-5%
16	NS(=O)(=O)c1ccc(N2N=C(c3ccc(Br)cc3)CC2c2ccc(F)cc2)cc1 (configuration not stated)	?	-10%	-17%

No.	Nrf2 ARE act	Nrf2 inh	A549 viability
9	0%	·	·
10	6%	?	-7%
11	3%	15µM*	?
12	-1%	?	12µM*
13	1%	-22%	0%
14	3.5µM*	?	10%
15	?	?	2%
16	-2%	18µM*	?

# (listing goes on)
No.	Compound	miR-21 FLuc	Mito fusion yeast	GRP78 ERSR act
17	CC(=O)Nc1ccc(Br)c(Cl)c1	6%	7%	-2%
18	O=C(Nc1ccc(Br)c(Cl)c1)C1CC1	0%	4%	-3%
19	Cc1ccc(C2CC(c3cccs3)=NN2C(=O)c2ccc(Br)o2)cc1 (configuration not stated)	-1%	2.8µM*	-1%
20	CCOc1ccc(C(C)=O)cc1COc1ccc(C)nc1[N+](=O)[O-]	-7%	22%	-6%
21	COc1ccc(CCNC(=O)c2nc(SCc3ccccc3F)ncc2Cl)cc1OC	?	·	-4%
22	Cc1cccc(Nc2nc(N)c([N+](=O)[O-])c(N3CCC(C)CC3)n2)c1	-5%	-8%	-4%
23	CCN1CCN(c2nc(Nc3cccc(OC)c3)nc(N)c2[N+](=O)[O-])CC1	24%	-8%	3%
24	Cc1cccc(Nc2nc(N)c([N+](=O)[O-])c(N3CC(C)OC(C)C3)n2)c1 (configuration not stated)	18%	-26%	-1%

No.	Nrf2 ARE act	Nrf2 inh	A549 viability
17	0%	0%	-2%
18	2%	15µM*	-10%
19	2%	·	-14%
20	3%	-3%	-1%
21	0%	16µM*	-12%
22	0%	18µM*	?
23	3%	-7%	?
24	0%	18µM*	?

# More compounds:
No.	Compound	miR-21 FLuc	Mito fusion yeast	GRP78 ERSR act
25	Cc1cccc(Nc2nc(N)c([N+](=O)[O-])c(N3CC(C)CC(C)C3)n2)c1 (configuration not stated)	18%	-23%	-13%
26	O=C(NCc1cccc(Br)c1)C1CCN(C(=O)c2sccc2-n2cccc2)CC1	19%	·	·
27	COc1ccc(/C=C2\CCCC3C2=NN(C(=O)COC(=O)CNC(=O)c2ccccc2)C3c2ccc(OC)cc2)cc1 (configuration not stated)	-4%	-4%	-2%
28	COc1ccc(/C=C2\CCCC3C2=NN(C(=O)CSc2ncn[nH]2)C3c2ccc(OC)cc2)cc1 (configuration not stated)	3%	23%	-1%
29	Brc1ccc(CSc2ncnc3nc[nH]c23)cc1	-13%	13µM*	3%
30	Fc1ccc(CSc2ncnc3nc[nH]c23)cc1	-19%	24%	-1%
31	O=C(C[C@H]1C[C@H](C(=O)N2CCCCC2)[C@@]2(CCc3ccccc3)c3[nH]c4ccc(Cl)cc4c3CCN2C1=O)NCCC1=CCCCC1	·	·	-4%
32	COc1ccc2[nH]c3c(c2c1)CCN1C(=O)C(CC(=O)NCc2ccco2)C[C@H](C(=O)N2CCCCC2)[C@@]31CCc1ccccc1 (some centres not stated)	·	·	-2%

No.	Nrf2 ARE act	Nrf2 inh	A549 viability
25	-2%	16µM*	21µM*
26	4%	-17%	0%
27	2%	13µM*	·
28	3%	?	-15%
29	4%	-6%	0%
30	-1%	-4%	-2%
31	1%	1%	2%
32	-1%	23µM*	-26%

# Next results:
No.	Compound	miR-21 FLuc	Mito fusion yeast	GRP78 ERSR act
33	O=C(C[C@H]1C[C@H](C(=O)N2CCCCC2)[C@@]2(CCc3ccccc3)c3[nH]c4ccc(Cl)cc4c3CCN2C1=O)NCCc1ccccn1	·	·	1%
34	COc1ccc2[nH]c3c(c2c1)CCN1C(=O)C(CC(=O)NCCc2ccccn2)C[C@H](C(=O)N2CCCCC2)[C@@]31CCc1ccccc1 (some centres not stated)	·	·	-3%
35	CC(C)(C)NC(=O)C[C@H]1C[C@H](C(=O)N2CCCCC2)[C@@]2(C)c3[nH]c4ccc(Cl)cc4c3CCN2C1=O	·	·	-3%
36	Cc1ccc(Cn2cc(CCC(=O)NC3CCC(C)CC3)c3ccccc32)cc1 (configuration not stated)	-15%	·	2%
37	CC(=O)NN1C(=O)c2ccccc2NC1c1ccc([N+](=O)[O-])o1 (configuration not stated)	0%	0%	-3%
38	CCN(CC)CCOC(=O)c1ccc(Cl)cc1	-11%	2%	-3%

No.	Nrf2 ARE act	Nrf2 inh	A549 viability
33	0%	21µM*	?
34	0%	21µM*	-27%
35	0%	16µM*	?
36	5%	?	0%
37	13%	?	?
38	-1%	4%	-1%

# Bioassay records: PubChem, National Center for Advancing Translational Sciences (NCATS)
